In patent publication US12391671B2, “Allosteric EGFR inhibitors and methods of use thereof” (Dana-Farber Cancer Institute, Inc., priority 2019, dated 2025):
Read-outs that look alike come from different tables or passages of the source.

Sequences of proteins named here, by UniProt entry; tags and fusion partners are left off. Residues count along the entry.
UniProt P00533, 25-1210 L858R limits assumed: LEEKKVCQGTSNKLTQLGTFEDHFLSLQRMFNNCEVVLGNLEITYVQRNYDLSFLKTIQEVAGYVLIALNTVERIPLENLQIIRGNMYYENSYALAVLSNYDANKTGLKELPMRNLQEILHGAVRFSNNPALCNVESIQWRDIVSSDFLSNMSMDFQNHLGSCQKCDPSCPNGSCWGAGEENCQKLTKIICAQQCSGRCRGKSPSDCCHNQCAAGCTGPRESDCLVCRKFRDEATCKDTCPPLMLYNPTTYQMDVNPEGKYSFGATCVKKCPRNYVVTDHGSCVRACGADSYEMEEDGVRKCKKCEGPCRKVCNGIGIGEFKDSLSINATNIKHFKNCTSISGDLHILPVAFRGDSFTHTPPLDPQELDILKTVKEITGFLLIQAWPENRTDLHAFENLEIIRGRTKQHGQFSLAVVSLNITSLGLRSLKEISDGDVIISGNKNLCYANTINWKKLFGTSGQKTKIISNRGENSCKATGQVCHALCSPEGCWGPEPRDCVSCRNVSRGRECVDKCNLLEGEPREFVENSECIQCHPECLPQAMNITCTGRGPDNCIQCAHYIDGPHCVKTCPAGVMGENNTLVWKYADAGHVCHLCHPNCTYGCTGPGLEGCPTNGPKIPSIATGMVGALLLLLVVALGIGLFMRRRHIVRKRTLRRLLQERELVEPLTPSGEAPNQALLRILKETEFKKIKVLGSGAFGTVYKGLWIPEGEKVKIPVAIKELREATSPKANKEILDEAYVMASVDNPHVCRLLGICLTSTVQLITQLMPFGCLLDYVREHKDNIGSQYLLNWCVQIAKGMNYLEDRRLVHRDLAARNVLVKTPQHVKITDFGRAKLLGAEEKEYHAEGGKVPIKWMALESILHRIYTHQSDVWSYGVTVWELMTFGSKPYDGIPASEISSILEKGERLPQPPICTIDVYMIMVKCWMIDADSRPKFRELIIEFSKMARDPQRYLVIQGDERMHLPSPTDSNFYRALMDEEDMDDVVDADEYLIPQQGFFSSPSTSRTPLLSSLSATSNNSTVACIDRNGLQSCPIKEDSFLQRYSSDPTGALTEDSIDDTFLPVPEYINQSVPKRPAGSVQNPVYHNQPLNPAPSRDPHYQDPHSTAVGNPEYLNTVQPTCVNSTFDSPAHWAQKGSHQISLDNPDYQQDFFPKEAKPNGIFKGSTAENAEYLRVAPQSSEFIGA
UniProt P00533, 25-1210 T790M/L858R limits assumed: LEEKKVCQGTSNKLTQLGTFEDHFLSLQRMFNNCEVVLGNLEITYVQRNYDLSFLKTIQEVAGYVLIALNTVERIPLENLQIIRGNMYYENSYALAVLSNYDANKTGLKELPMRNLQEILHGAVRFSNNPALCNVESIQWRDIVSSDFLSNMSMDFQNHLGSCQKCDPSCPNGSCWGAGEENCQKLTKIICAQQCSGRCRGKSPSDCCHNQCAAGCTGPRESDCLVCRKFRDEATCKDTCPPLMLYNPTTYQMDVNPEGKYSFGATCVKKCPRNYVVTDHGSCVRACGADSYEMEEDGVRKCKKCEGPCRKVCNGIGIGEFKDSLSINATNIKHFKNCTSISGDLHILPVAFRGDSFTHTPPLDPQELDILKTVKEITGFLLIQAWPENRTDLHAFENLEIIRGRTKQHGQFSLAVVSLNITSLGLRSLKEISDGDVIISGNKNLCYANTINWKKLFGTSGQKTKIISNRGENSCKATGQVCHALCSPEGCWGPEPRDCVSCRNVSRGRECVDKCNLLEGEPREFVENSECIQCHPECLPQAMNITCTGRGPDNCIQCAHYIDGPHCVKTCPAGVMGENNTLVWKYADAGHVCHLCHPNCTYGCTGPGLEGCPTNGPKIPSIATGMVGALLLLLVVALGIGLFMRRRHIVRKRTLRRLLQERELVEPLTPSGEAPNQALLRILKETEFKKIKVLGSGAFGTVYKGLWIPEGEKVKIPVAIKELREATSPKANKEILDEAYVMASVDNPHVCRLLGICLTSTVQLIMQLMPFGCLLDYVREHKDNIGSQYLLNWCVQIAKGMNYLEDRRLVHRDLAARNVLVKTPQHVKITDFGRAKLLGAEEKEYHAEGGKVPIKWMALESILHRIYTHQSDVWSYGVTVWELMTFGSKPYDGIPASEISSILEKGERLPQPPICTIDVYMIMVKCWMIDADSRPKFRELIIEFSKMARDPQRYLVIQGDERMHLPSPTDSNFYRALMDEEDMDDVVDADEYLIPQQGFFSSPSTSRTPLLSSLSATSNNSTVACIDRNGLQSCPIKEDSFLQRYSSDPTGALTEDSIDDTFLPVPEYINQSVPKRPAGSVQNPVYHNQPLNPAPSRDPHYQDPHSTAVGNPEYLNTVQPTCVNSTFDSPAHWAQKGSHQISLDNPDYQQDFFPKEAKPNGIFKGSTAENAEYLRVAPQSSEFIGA

Columns and labels:
[1] = biological target: EGFR L858R/T790M (Homo sapiens (Human), UniProt P00533, L858R/T790M); experiment: HTRF-based EGFR biochemical assay (L858R/T790M); conditions: read-out: HTRF IC50 EGFR L858R/T790M; 100 μM ATP, enzyme 0.02 nM
Experimental: (§1) Example 25: HTRF-Based EGFR Biochemical Assays
(§2) EGFR biochemical activity measurements were carried out using the homogeneous time-resolved fluorescence (HTRF) assay (Cisbio), inhibitors and DMSO normalizations were first dispensed to empty black low-volume 384-well plates (Corning) with 0300 digital liquid dispenser (HP). All reactions were carried out at room temperature and solutions were added to plates with a Multidrop Combi Reagent Dispenser (ThermoFisher). The reaction mixture (10 μL final volume) contained 1 μM tyrosine kinase peptide-biotin substrate and mutant EGFR in a reaction buffer (50 mM HEPES pH 7.0, 5 mM MgCl2, 1 mM MnCl2, 0.01% BSA, 2 mM TCEP, 0.1 mM NaVO4). Enzyme concentrations were adjusted to accommodate varying kinase activities (L858R 0.1 nM, L858R/T790M 0.02 nM). Enzyme reaction solution (2× concentrations, 5 μL) was added to 384-well plates containing compounds and incubated for 30 mins. Enzyme reactions were initiated with the addition of 5 μL of ATP to a final concentration of 100 μM and reacted for 20 mins. Reactions were quenched with the addition of 10 μL of phospho-tyrosine antibody-Europium(III) cryptate (1-to-180 volume ratio) and Streptavidin-XL665 (46.7 nM) in EDTA-containing detection buffer, then incubated at room temperature for 1 hour, and read with a PHERAstar plate reader (excitation=337 nm, emission=620 nm and 665 nm). […]

[2] = biological target: EGFR L858R (Homo sapiens (Human), UniProt P00533, L858R); experiment: HTRF-based EGFR biochemical assay (L858R); conditions: read-out: HTRF IC50 EGFR L858R; 100 μM ATP, enzyme 0.1 nM
Experimental: as §1, §2

[3] = test system: EGFR mutant L858R/T790M Ba/F3 cells; experiment: Ba/F3 cell proliferation model (Cell Titer Glo), EGFR L858R/T790M; conditions: 72 hours
Text: Example 26: Ba/F3 Cell Proliferation Models
The EGFR mutant L858R and L858R/T790M Ba/F3 cells have been previously described (Zhou, W., et al. Nature 462, 2009, 1070-1074). All cell lines were maintained in RPM 1640 (Cellgro; Mediatech Inc., Herndon. CA) supplemented with 10% FBS, 100 units/mL penicillin, 100 units/mL streptomycin. The EGFR I941R mutation was introduced via site directed mutagenesis using the Quick Change Site-Directed Mutagenesis kit (Stratagene; La Jolla, CA) according to the manufacturer's instructions. All constructs were confirmed by DNA sequencing. The constructs were shuttled into the retroviral vector JP1540 using the Cre-recombination system (Agilent Technologies, Santa Clara, CA). […]
Growth and inhibition of growth was assessed by the Cell Titer Glo® assay (Promega, Madison, WI) and was performed according to the manufacturer's instructions. The Cell Titer Glo® assay is a luminescence-based method used to determine the number of viable cells based on quantitation of the ATP present, which is directly proportional to the amount of metabolically active cells present. Ba/F3 cells of different EGFR genotypes were exposed to compounds as a single agent or in combination with 1 μg/mL cetuximab for 72 hours and the number of cells used per experiment was determined empirically as has been previously established (Zhou, et al., Nature 2009). […]

Nc1ccc(C#Cc2ccc3c(c2)C(=O)N(C(c2nc4ccccc4[nH]2)c2n[nH]c4c2CCC4)C3)cn1 (stereo not shown)
IC50 [1]: 35 nM | IC50 [2]: 80 nM | IC50 ([3]; read-out: Cell IC50 BaF3 EGFR L858R/T790M (+cetux.), in combination with 1 μg/mL cetuximab): 330 nM | IC50 ([3]; read-out: Cell IC50 BaF3 EGFR L858R/T790M, single agent): > 10000 nM
